Measurements as given in patent US10426790B2, “Treatment of allergic eye conditions with cyclodextrins” (Aldeyra Therapeutics, Inc., priority 2016, dated 2019).

Test system: hydroxypropyl-γ-cyclodextrin/NS2 complexes
Experiment: Example 4 Study 2: allergen displacement of NS2, HP-γ-CD:NS2 30:1, protein:NS2 2:1
Format: physicochemical
Conditions: up to 96 hours, with Birch, Ragweed, Timothy allergen proteins
Method: Study 1 was conducted using a 19:1 SBE-β-CD/NS2 ratio, at starting concentrations equivalent to the clinical formulation. Protein concentration was at 6 mg/mL. […] Study 3 was conducted at a lower NS2 concentration while using the same allergen protein concentrations, to determine whether the effect was present at the lower concentration. A 19:1 SBE-β-CD/NS2 ratio was still in effect, but the ratio of protein to NS2 was 6:1 due to the lower NS2 concentration. […] Stock solutions of each allergen protein were prepared and filtered to remove any non-protein, insoluble portions originating from the lyophilizate. Each protein solution was prepared at a concentration of about 14 mg/mL in 30 mM Phosphate Buffer, pH 7.0, based on the label claim of protein content in each lyophilizate. Stock solution of NS2 (5.24 mg/mL) and HP-γ-CD (150 mg/mL) was prepared in 30 mM phosphate buffer, pH 7.0. This represents about a 29:1 HP-γ-CD:NS2 ratio in the solution. […] Samples were vortexed to mix thoroughly, then kept at 25° C., protected from light. Samples (˜0.5 mL) were taken at T=0 (control), 3 h, 24 h, and 96 h. Each sample was centrifuged and the supernatant filtered through a PVDF syringe filter. […] Samples at T=0 were used as controls, then the recovery percentages were calculated based on T=0 control.

**Q.** Which “effect on NS2 solubility, in words” value does the source give for Hydroxypropyl-γ-cyclodextrin [HP-γ-CD] here?
**A.** The value was “did not show any significant drops in NS2 solubility”.
